Laboratory results published in ChEMBL document CHEMBL1938342 (J Med Chem, 2011).

What was measured:
Carbonic anhydrase 9 = Carbonic anhydrase 9 (Homo sapiens, UniProt Q16790); test: Inhibition of human recombinant CA9 after 6 hrs by stopped flow CO2 hydration assay
Carbonic anhydrase 12 = Carbonic anhydrase 12 (Homo sapiens, UniProt O43570); test: Inhibition of human recombinant CA12 after 6 hrs by stopped flow CO2 hydration assay
Carbonic anhydrase 2 = Carbonic anhydrase 2 (Homo sapiens, UniProt P00918); test: Inhibition of human full-length cytosolic CA2 after 6 hrs by stopped flow CO2 hydration assay

Compound | Ki (Carbonic anhydrase 9) [µM] | Ki (Carbonic anhydrase 12) [µM] | Ki (Carbonic anhydrase 2) [µM]
O=c1ccc2ccccc2o1 [COUMARIN] | > 500 | > 500 | 
O=c1ccc2ccc(O)cc2o1 [UMBELLIFERONE] |  |  | > 100
